The target of experiment [1] is human glucagon receptor (Glucagon-R) (human) (UniProt P47871). Nature of the experiment: cell-based or functional assay.
Experiment [2] has as its target human glucagon-like peptide 1 receptor (GLP-1-R) (human) (UniProt P43220). Nature of the experiment: cell-based or functional assay.

In the case of “Exendin-4 (from UniProt P26349) (peptide)”, the EC50 of cAMP formation in HEK293 cells expressing human Glucagon-R in experiment [1] was over 1000 nM. Moreover, the EC50 of cAMP formation in HEK293 cells expressing human GLP-1-R in experiment [2] is 0.02 nM.

(Values after patent US20140127174A1 (ZEALAND PHARMA A S, published 2014).)
